Assay [1] has as its target Pi3K γ (Homo sapiens, UniProt P48736). Description: Fluorescent (HTRF) determination of PI3 kinase enzyme activity, gamma isoform. To be noted: Table 2, at 1 μm. An excerpt:
(§1) Phosphoinositide 3 kinases (PI3K) belong to a class of lipid kinases that play a critical role in the regulation of several key cellular processes. The PI3K are capable of phosphorylating the 3-hydroxy position of phosphoinositols thereby generating second messengers involved in downstream signalling events. The homogenous time resolved fluorescence (HTRF) assay allows detection of 3,4,5-triphosphate (PIP3) formed as a result of phosphorylation of phosphotidylinositol 4,5-biphosphate (PIP2) by PI3K isoforms such as α, β, γ or δ.
(§2) PI3K isoform activity for α, β, γ or δ was determined using a PI3K human HTRF™ Assay Kit (Millipore, Billerica, Mass.) with modifications. All incubations were carried out at room temperature. Briefly, 0.5 μl of 40× inhibitor (in 100% DMSO) or 100% DMSO were added to each well of a 384-well white plate (Greiner Bio-One, Monroe, N.C.) containing 14.5 μl 1× reaction buffer /PIP2 (10 mM MgCl2, 5 mM DTT, 1.38 μM PIP2) mix with or without enzyme, followed by 5 μl/well of 400 μM ATP and incubated for an additional 30 minutes. Reaction was terminated by adding 5 μl/well stop solution (Millipore, Billerica, Mass.). […] HRTF ratio was measured on a microplate reader (BMG Labtech., Germany) at an excitation wavelength of 337 nm and emission wavelengths of 665 and 615 nm with an integration time of 400 msec counting delay of 50 msec.
(In general: In TR-FRET formats the signal depends on donor and acceptor labels being close together.)

Protein sequences, listed by entry. Tags and fused reporters are not part of them. Lines headed by an entry give the natural chain unless they say otherwise; changes in a name come on top.
UniProt P48736, whole entry: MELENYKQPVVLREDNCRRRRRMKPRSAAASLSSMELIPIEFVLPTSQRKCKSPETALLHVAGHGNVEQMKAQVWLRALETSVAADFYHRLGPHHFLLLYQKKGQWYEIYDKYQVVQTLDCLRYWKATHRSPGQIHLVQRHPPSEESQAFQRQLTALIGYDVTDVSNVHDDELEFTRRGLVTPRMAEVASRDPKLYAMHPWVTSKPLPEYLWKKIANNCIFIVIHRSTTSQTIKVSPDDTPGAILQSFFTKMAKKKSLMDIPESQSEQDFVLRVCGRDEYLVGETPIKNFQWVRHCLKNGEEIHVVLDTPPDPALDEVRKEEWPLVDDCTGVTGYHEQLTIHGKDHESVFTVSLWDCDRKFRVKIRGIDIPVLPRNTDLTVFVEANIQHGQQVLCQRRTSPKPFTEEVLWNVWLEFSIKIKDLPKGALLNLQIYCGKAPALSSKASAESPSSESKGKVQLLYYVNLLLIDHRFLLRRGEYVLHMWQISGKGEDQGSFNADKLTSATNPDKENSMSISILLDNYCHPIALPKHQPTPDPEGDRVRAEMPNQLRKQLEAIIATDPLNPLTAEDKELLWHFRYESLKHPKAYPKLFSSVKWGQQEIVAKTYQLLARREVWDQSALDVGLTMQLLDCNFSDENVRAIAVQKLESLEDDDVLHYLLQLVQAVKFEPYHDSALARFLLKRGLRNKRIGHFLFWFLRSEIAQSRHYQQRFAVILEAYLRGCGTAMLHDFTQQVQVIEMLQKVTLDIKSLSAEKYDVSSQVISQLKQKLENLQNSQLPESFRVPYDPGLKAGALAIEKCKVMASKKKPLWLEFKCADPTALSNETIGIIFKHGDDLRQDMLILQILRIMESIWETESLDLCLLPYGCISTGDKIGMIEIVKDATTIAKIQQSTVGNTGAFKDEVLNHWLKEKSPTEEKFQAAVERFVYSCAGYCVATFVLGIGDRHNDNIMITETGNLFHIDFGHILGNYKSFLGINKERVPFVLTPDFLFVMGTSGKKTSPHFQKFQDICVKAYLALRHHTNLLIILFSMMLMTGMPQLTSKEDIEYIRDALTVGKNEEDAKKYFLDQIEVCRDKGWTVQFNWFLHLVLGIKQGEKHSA
UniProt O00329, whole entry: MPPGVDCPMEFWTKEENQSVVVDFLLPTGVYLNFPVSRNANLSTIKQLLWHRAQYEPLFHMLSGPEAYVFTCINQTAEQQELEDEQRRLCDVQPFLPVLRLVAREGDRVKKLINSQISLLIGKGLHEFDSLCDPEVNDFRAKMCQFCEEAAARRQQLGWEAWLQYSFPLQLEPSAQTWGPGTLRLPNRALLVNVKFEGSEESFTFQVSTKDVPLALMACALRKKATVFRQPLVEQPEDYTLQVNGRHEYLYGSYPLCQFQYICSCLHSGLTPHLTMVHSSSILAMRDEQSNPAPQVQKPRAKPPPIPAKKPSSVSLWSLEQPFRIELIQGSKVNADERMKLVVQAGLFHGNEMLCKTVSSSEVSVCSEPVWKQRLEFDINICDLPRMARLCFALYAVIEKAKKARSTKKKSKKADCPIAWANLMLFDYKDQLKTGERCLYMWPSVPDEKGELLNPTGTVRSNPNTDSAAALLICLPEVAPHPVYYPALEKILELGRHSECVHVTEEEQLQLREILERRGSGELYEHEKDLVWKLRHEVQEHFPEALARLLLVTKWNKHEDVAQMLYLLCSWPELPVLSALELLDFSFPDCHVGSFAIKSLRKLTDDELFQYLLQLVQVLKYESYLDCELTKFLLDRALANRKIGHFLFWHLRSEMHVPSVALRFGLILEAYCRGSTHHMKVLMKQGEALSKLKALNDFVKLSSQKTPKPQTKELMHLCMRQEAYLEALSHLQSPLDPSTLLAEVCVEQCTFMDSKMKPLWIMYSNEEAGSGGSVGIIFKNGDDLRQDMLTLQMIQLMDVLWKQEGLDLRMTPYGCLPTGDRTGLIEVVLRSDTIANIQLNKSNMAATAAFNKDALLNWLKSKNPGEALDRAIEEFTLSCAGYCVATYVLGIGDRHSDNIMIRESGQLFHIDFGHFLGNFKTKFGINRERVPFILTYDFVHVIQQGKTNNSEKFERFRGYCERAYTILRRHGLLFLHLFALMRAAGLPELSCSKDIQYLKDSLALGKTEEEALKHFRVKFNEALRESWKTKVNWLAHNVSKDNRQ
UniProt P27986, whole entry partner: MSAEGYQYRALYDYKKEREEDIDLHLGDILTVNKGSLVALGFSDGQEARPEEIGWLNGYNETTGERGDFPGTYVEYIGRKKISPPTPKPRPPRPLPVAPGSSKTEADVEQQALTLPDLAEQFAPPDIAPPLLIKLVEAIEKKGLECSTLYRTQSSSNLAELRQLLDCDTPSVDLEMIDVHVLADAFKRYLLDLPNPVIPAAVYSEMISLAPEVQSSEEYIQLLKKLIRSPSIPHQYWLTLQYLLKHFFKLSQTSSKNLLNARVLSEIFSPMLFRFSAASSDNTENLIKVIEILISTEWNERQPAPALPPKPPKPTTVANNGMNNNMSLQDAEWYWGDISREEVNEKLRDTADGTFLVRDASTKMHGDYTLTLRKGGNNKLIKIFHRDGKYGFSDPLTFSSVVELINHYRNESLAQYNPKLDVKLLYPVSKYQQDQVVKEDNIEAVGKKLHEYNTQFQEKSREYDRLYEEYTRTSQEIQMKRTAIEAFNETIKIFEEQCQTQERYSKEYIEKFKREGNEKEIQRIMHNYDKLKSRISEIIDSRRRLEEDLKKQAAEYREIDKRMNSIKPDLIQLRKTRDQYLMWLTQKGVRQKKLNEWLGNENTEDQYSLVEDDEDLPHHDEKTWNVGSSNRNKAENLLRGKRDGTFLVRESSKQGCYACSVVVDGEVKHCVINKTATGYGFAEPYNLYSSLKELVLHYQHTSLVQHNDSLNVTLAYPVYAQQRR

Assay [2] deals with PI3Kδ (Homo sapiens, UniProt O00329). Description: Fluorescent (HTRF) determination of PI3 kinase enzyme activity, delta isoform. To be noted: read-out: PI3K δ IC50 in nM; Table 2, comparative data.
From the text: as §1, §2

One may read the IC50 as the concentration that inhibits the measured activity by half.

In the case of `C[C@H](Nc1ncnc2[nH]cnc12)c1oc2ccccc2c(=O)c1-c1cccc(F)c1`, the “PI3Kγ % Inhibition at 1 μm” value in assay [1] amounted to 25.54%. Further, the IC50 in assay [2] is 106 nM.

The values above are taken from patent US11466006B2, “Dual selective PI3 delta and gamma kinase inhibitors” (Rhizen Pharmaceuticals SA, priority 2013, dated 2022).
